Like-named read-outs stand apart in the source and are kept apart here.
Experiments:
[1] = biological target: T1, PI3Kβ (p110β/p85α) (Homo sapiens, UniProt P42338); conditions: published value; read-out: published IC50 (p110β/p85α enzyme); cited from earlier work
T1 construct: purchased BPS Bioscience or Millipore

Chains of the proteins cited; added tags and fusions are not shown. Lines headed by an entry give the natural chain unless they say otherwise; changes in a name come on top.
UniProt P42338: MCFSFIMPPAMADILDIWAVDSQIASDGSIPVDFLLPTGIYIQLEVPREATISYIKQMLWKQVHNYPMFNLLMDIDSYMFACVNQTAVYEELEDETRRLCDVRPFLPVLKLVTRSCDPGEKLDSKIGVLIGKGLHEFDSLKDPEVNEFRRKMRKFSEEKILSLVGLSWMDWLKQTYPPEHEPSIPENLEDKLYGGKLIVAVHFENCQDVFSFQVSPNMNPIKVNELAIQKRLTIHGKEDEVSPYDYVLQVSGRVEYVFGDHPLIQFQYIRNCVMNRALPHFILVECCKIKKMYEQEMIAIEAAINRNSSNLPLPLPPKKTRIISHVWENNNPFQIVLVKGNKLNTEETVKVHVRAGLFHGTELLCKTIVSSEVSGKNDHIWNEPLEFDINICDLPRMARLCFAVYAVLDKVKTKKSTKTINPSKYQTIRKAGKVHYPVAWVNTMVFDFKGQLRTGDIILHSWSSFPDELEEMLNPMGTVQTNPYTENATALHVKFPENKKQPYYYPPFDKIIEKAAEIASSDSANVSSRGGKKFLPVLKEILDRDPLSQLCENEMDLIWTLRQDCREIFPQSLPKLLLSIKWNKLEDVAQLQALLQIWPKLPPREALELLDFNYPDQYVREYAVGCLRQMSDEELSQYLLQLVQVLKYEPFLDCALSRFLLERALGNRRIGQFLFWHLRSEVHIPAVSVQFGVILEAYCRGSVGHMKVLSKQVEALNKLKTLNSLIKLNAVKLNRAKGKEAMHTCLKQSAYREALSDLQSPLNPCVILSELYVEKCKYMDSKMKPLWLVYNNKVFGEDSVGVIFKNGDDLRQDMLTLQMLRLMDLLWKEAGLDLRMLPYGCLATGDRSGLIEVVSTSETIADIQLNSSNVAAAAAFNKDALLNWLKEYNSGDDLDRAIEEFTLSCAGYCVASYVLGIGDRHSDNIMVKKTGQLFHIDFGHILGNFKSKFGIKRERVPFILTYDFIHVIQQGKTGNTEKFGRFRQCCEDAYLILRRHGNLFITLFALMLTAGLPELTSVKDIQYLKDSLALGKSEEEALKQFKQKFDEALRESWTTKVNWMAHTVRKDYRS

[2] = biological target: T1, PI3Kβ (p110β/p85α); experiment: HTRF assay, reference inhibitors on PI3Kβ; type: biochemical; conditions: n=6, read-out: Reference Inhibitor IC50 estimated for p110β/p85α enzyme
Experimental: Homogeneous Time Resolved Fluorescence (HTRF) Assay Protocol for Potency Assessment Against the Active Forms of PI3Kα, PI3Kβ, and PI3Kγ
The mechanics of the assay platform are best described by the vendor (Millipore, Billerica, Mass.) on their website at the following URL: www.millipore.com/coa/tech1/74jt4z.
Briefly, Stop solution (Stop A, #33-007 and Stop B, #33-009; 3:1 ratio) and Detection Mix (from DMC, #33-015 with DMA, #33-011 and DMB, #33-013; 18:1:1 ratio) were prepared as recommended by the manufacturer about 2 hrs prior to use. […] Lipid kinase reactions were started with the addition of 5 μL of ATP solution, mixed for 15 sec on a rotary plate shaker and incubated for 30-60 minutes at 25° C. Next, reactions were stopped with a 5 μL addition of Stop solution immediately followed by a 5 μL volume of Detection Mix.

IC50 [2]: > 1000 nM
SMILES: O=c1cc(N2CCOCC2)oc2c(-c3ccccc3)cccc12 [LY294002]
IC50 [1]: > 1000 nM

Reference: US20120258967A1, “PI3 KINASE INHIBITORS AND USES THEREOF” (AVILA THERAPEUTICS, INC., priority 2011, published 2012)
